The chains behind the UniProt entries cited, without tags or fusion partners. Residues count along the entry.
UniProt Q9Y233, 1-779 isoform Q9Y233-1: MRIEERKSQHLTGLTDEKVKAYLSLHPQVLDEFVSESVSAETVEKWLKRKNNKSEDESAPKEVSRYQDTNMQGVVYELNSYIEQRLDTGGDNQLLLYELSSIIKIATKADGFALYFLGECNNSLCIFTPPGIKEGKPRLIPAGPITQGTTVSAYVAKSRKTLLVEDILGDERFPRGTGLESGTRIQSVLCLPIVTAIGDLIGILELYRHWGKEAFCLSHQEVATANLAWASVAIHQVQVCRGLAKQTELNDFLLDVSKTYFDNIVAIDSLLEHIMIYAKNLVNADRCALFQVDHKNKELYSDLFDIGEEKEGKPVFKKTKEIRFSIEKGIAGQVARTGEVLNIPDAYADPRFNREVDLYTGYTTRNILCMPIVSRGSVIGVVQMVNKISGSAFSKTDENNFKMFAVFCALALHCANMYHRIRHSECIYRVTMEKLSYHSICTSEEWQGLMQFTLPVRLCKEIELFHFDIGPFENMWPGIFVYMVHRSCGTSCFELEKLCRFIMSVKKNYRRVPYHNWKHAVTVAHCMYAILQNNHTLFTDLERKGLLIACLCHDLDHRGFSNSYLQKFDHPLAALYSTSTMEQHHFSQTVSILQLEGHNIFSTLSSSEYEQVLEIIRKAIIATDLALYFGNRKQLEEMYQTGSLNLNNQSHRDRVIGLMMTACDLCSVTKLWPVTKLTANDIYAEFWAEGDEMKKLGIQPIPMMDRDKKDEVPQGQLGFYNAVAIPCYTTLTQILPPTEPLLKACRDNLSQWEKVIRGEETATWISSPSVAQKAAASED

In patent US20090143361A1, “Pyrido[3,2-E]Pyrazines, Process For Preparing The Same, And Their Use As Inhibitors Of Phosphodiesterase 10” (ELBION GMBH, priority 2007, published 2009):

Target: T1, human recombinant PDE10A (Homo sapiens, UniProt Q9Y233)
T1 construct: made in house; host or cells: SF21 insect cells (baculovirus)
Test: Inhibition of PDE10, human recombinant PDE10A ([3H]-cAMP SPA)
Assay type: biochemical
Experimental: The gene was than inserted into a baculovirus vector, ligated with the baculovirus DNA. The enzyme-protein was expressed in SF21-cells. The enzyme was isolated from these cells by harvesting the cells by a centrifugation at 200 g to collect the cells. The cells were resuspended in 50 mM Tris-HCl/5 mM MgCl2 buffer (pH=7.4) and lysed by a sonication of the cells. The cytosolic PDE10A was obtained by a centrifugation at 48000 g for 1 h in the supernatant and stored at −70° C. PDE10 activity was determined in a one step procedure in microtiterplates. […] Nonspecific activity was tested without the enzyme. The reaction was initiated by addition of the substrate solution and was carried out at 37° C. for 30 minutes. Enzymatic activity was stopped by addition of 25 μl YSi-SPA-beads (Amersham-Pharmacia). One hour later the mixture was measured in a liquid scintillation counter for microtiterplates (Microbeta Trilux). To pipette the incubation mixture a robot Biomek (Fa. Beckman) is used. […] For determination of IC50 values the Hill-plot, 2-parameter-model, was used.

COc1ccc(Cc2nccc3cc(OC)c(OC)cc23)cc1OC [Papaverine, papaverine]
IC50: 89 nM
